# The list shows a part of the results, in another mix than the full data. Some salts or complexes appear as unconnected parts, following the source record. Calls of active or inactive are those of the source.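 Rule for the calls: active = inhibition at or above 40%; inactive = inhibition below 40%.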
# Biological target: Prothrombin (Homo sapiens) (UniProt P00734)
# Assay: human alpha-thrombin inhibitors, primary screen, counter-screen for coagulation protease inhibitor project, biochemical, 1536-well, fluorogenic AMC substrate (AID 1046);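 note: 0% = enzyme with no compound and 100% = wells without enzyme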
# Conditions: Boc-VPR-AMC fluorogenic substrate cleavage, at 5 µM, hits give high values
row,Compound,inhibition
1,O=C(OCCCN1CCCC1)C(O)(c1ccccc1)C1CCCCC1 (stereo unspecified),inactive: 0.85%
2,CP(=O)(Oc1ccccc1)N1CCOC1=O (stereo unspecified),inactive: 19.7%
3,CCc1ccc(OP(C)(=O)Nc2cccnc2)cc1 (stereo unspecified),inactive: -11.3%
4,CCN(CC)CC(O)COC(=O)C(O)(c1ccccc1)C1CCCCC1 (stereo unspecified),inactive: 0.61%
5,COc1ccc(OP(C)(=O)Nc2ccc(Br)cc2)cc1 (stereo unspecified),inactive: -7.18%
6,CN(C)C(=O)c1c([N+](=O)[O-])cc([N+](=O)[O-])cc1[N+](=O)[O-],inactive: -41.9%
7,COc1ccccc1OP(C)(=O)Nc1ccccc1Br (stereo unspecified),inactive: -11.3%
8,CC(C)(C)c1ccc(OP(C)(=O)O)cc1,inactive: -2.43%
9,CP(=O)(Nc1ccc(Cl)cc1)Oc1ccc(F)cc1 (stereo unspecified),inactive: -0.35%
10,CCOC(=O)c1ccc(NP(C)(=O)Oc2ccc(Cl)cc2)cc1 (stereo unspecified),inactive: -2.19%
11,CP(=O)(OC12CC3CC(CC(C3)C1)C2)OC12CC3CC(CC(C3)C1)C2,inactive: -4.45%
12,COc1ccccc1OP(C)(=O)Nc1ccc(C)c(C)c1 (stereo unspecified),inactive: -1.46%
13,COc1ccc(OP(C)(=O)Nc2ccccc2Br)cc1 (stereo unspecified),inactive: -0.78%
14,Cc1cc(C)cc(OP(C)(=O)Nc2cccc(C(F)(F)F)c2)c1 (stereo unspecified),inactive: -8.77%
15,CP(=O)(Nc1ccc(Cl)cc1Cl)Oc1ccccc1 (stereo unspecified),inactive: -1.38%
16,CP(=O)(OCCOc1ccccc1)OCCOc1ccccc1,inactive: -1.92%
17,Cc1nc2ccc3ccccc3c2o1.O=[N+]([O-])c1cc([N+](=O)[O-])c(O)c([N+](=O)[O-])c1,inactive: -0.24%
18,COc1ccc(OP(C)(=O)Nc2ccccn2)cc1 (stereo unspecified),inactive: -5.07%
19,CN(C)CCOC(=O)C(O)(c1ccccc1)C1CCCC1 (stereo unspecified),inactive: -5.17%
20,COc1ccccc1OP(C)(=O)Nc1ccc(Br)cc1 (stereo unspecified),inactive: -5.73%
21,CP(=O)(Nc1ccccn1)Oc1ccccc1 (stereo unspecified),inactive: 0.5%

row,Compound,inhibition
1,COc1ccccc1OP(C)(=O)Nc1ccc(C)cc1C (stereo unspecified),inactive: -5.26%
2,CCc1ccc(OP(C)(=O)O)cc1,inactive: -4.02%
3,Cc1c(NP(C)(=O)Oc2ccc(C(C)C)cc2)c(=O)n(-c2ccccc2)n1C (stereo unspecified),inactive: 2.43%
4,O=[N+]([O-])c1cc([N+](=O)[O-])c(Nc2ccccn2)c([N+](=O)[O-])c1,inactive: -5.61%
5,CP(=O)(Nc1ccccc1F)Oc1ccccc1 (stereo unspecified),inactive: -5.96%
6,CC(C)c1ccc(OP(C)(=O)Nc2ccc(SC(F)(F)F)cc2)cc1 (stereo unspecified),inactive: 0.26%
7,COc1ccc2c(c1O)-c1c(O)c(OC)cc3c1[C@H](C2)[N+](C)(C)CC3.O=[N+]([O-])c1cc([N+](=O)[O-])c([O-])c([N+](=O)[O-])c1[O-],inactive: 2.4%
8,O=C(OC1CN2CCC1CC2)c1ccc([N+](=O)[O-])cc1 (stereo unspecified),inactive: -3.28%
9,O=C(OCCN1CCN(CCOCc2ccccc2)CC1)C(O)(c1ccccc1)c1ccccc1,inactive: -2.49%
10,CCOC(=O)c1ccc(NP(C)(=O)Oc2ccc(F)cc2)cc1 (stereo unspecified),inactive: -7.75%
11,COc1ccc(OP(C)(=O)Nc2ccc(SC(F)(F)F)cc2)cc1 (stereo unspecified),inactive: 1.49%
12,CP(=O)(Nc1ccccc1)Oc1ccc(F)cc1 (stereo unspecified),inactive: 3.78%
13,CCCCCOc1ccc(NP(C)(=O)Oc2ccc(Cl)cc2Cl)cc1 (stereo unspecified),inactive: 1.95%
14,CCN(CC)CCCOC(=O)C(O)(c1ccccc1)C1CCCCC1 (stereo unspecified),inactive: -6.43%
15,CN(C)CCOC(=O)C(O)(c1ccccc1)C1CCCCC1 (stereo unspecified),inactive: -0.51%
16,COc1ccc(NP(C)(=O)Oc2ccccc2OC)cc1 (stereo unspecified),inactive: -3.31%
17,COc1ccc(OP(C)(=O)Nc2cccc(Br)c2)cc1 (stereo unspecified),inactive: -1.89%
18,Cc1cc(-c2cccc3ccccc23)c(C)cn1.O=[N+]([O-])c1cc([N+](=O)[O-])c(O)c([N+](=O)[O-])c1,inactive: -4.09%
19,O=[N+]([O-])c1cc([N+](=O)[O-])c(NCC2CCS(=O)(=O)C2)c([N+](=O)[O-])c1 (stereo unspecified),inactive: -4.35%
20,CCOP(C)(=S)SCC(=O)NC(C)(CC)C(=O)O (stereo unspecified),inactive: -13%
21,CP(=O)(Nc1ccc(SC(F)(F)F)cc1)Oc1ccc(F)cc1 (stereo unspecified),inactive: -4.27%

row,Compound,inhibition
1,Cc1ccccc1NP(C)(=O)Nc1ccccc1C,inactive: -5.92%
2,CP(=O)(Nc1ccc2c(c1)OCCO2)Oc1ccccc1 (stereo unspecified),inactive: -2.78%
3,O=[N+]([O-])c1cc([N+](=O)[O-])c(-n2nnc3ccccc32)c([N+](=O)[O-])c1,inactive: -2.46%
4,Cc1nc2ccc3ccccc3c2s1.O=[N+]([O-])c1cc([N+](=O)[O-])c(O)c([N+](=O)[O-])c1,inactive: 4.76%
5,O=[N+]([O-])c1cc([N+](=O)[O-])c(Nc2nnnn2CCO)c([N+](=O)[O-])c1,inactive: -2.14%
6,CCOC(=O)C(CC)C1=NC(C)(C)Cc2ccccc21.O=[N+]([O-])c1cc([N+](=O)[O-])c(O)c([N+](=O)[O-])c1 (stereo unspecified),inactive: -5.51%
7,CP(=O)(Nc1ccc(SC(F)(F)F)cc1)Oc1ccccc1 (stereo unspecified),inactive: -5.2%
8,CN1CCCCC1COC(=O)C1(O)c2ccccc2CCc2ccccc21 (stereo unspecified),inactive: -2.25%
9,COc1ccccc1OP(C)(=O)Nc1c(C)cccc1C (stereo unspecified),inactive: -0.05%
10,O=C(O)c1cccc(Nc2c([N+](=O)[O-])cc([N+](=O)[O-])cc2[N+](=O)[O-])c1,inactive: -3.45%
11,CC1=NCCc2c1[nH]c1ccccc21.O=[N+]([O-])c1cc([N+](=O)[O-])c(O)c([N+](=O)[O-])c1,inactive: -0.24%
12,CCOC(=O)c1ccc(NP(C)(=O)Oc2cc(C)cc(C)c2)cc1 (stereo unspecified),inactive: -4.87%
13,Cc1cc(C)cc(OP(C)(=O)Nc2ccc(C)cc2C)c1 (stereo unspecified),inactive: -1.41%
14,COc1ccccc1OP(C)(=O)Nc1cccc(Br)c1 (stereo unspecified),inactive: 3.26%
15,Cc1ccc(C)c(NP(C)(=O)Oc2ccccc2)c1 (stereo unspecified),inactive: -0.71%
16,Cc1cc(C)cc(OP(C)(=O)Nc2ccccn2)c1 (stereo unspecified),inactive: -7.27%
17,CP(=O)(Nc1cccc(Br)c1)Oc1ccccc1 (stereo unspecified),inactive: -0.14%
18,CCN(CC)CCCOC(=O)C(O)(c1ccccc1)c1ccccc1,inactive: 0.12%
19,O=[N+]([O-])c1ccc2c(c1)C=Nc1ccccc1O2,inactive: -4.6%
20,CC(C)(C)c1ccc(OP(C)(=O)Nc2ccc(SC(F)(F)F)cc2)cc1 (stereo unspecified),inactive: -5.75%
21,Cc1cccc(C)c1OP(C)(N)=O (stereo unspecified),inactive: -6.61%

row,Compound,inhibition
1,Cc1cc(C)cc(OP(C)(N)=O)c1 (stereo unspecified),inactive: 1.22%
2,COc1ccccc1OP(C)(=O)Nc1cc(Cl)ccc1C (stereo unspecified),inactive: -17.2%
3,COc1ccc(OP(C)(=O)Nc2cccc(F)c2)cc1 (stereo unspecified),inactive: 0.29%
4,COc1ccccc1OP(C)(=O)Nc1ccc(C)cc1 (stereo unspecified),inactive: 13.6%
5,Cc1ccc(NP(C)(=O)Oc2ccccc2)c(C)c1 (stereo unspecified),inactive: -8.13%
6,CCOC(=O)c1ccc(NP(C)(=O)Oc2ccccc2)cc1 (stereo unspecified),inactive: -3.86%
7,CP(=O)(Nc1ccccc1Br)Oc1ccccc1 (stereo unspecified),inactive: 0.99%
8,COc1ccccc1OP(C)(=O)Nc1ccccc1 (stereo unspecified),inactive: -3.05%
9,CP(=S)(Nn1cnnc1)Oc1ccccc1 (stereo unspecified),inactive: 1.17%
10,CP(=O)(NC(=O)Nc1ccccc1)Oc1ccccc1 (stereo unspecified),inactive: 4.21%
11,CCc1ccc(OP(C)(=O)N2CCN(c3ccc([N+](=O)[O-])cc3)CC2)cc1 (stereo unspecified),inactive: -6.17%
12,Cc1cc(C)cc(OP(C)(=O)Nc2ccc(SC(F)(F)F)cc2)c1 (stereo unspecified),inactive: 13.5%
13,CP(=O)(Nc1ccc(SC(F)(F)F)cc1)Oc1ccc(Cl)cc1 (stereo unspecified),inactive: 2.79%
14,Cc1cccc(C)c1OP(C)(=O)Nc1ccc(SC(F)(F)F)cc1 (stereo unspecified),inactive: -11.6%
15,CP(=O)(Oc1ccccc1)OC(c1ccccc1)C(F)(F)F (stereo unspecified),inactive: -1.23%
16,CP(=O)(Nc1ccccn1)Oc1ccc(Cl)cc1 (stereo unspecified),inactive: -5.34%
17,CCOC(=O)c1ccc(NP(C)(=O)Oc2ccc(OC)cc2)cc1 (stereo unspecified),inactive: -2.03%
18,CCOP(C)(=S)SCC(=O)NC(C)C(=O)O (stereo unspecified),inactive: 2.49%
